Assay results published in patent publication US10201532B2, “Compounds and their use” (ALLECRA THERAPEUTICS GMBH, priority 2010, dated 2019).

Test system: KPC2 K. pneumoniae ATCC BAA 1705
Test: Mice systemic infection model
Type: in vivo
Settings: sub-cutaneous, three time points post-infection, piperacillin study, survival to 7 days
Protocol: Female Swiss Albino mice, weighing 18-22 g were used for all studies. For each dose group, 5 or 6 mice were included. Study protocols were reviewed and approved by Institutional Animal Ethical Committee, Orchid Research Laboratories Limited. Mice were housed in individually ventilated cages provided with food and water ad libitum, throughout the study period. From overnight culture in Brain-Heart Infusion agar medium, challenge inoculum with required bacterial density was prepared in normal saline containing Hog gastric mucin. In studies involved with doripenem, washed bacterial cells was used. Each mouse was infected […] inoculum by intra-peritoneal injection.
Piperacillin with β-lactamase inhibitor (BLI) combinations: Increasing concentrations of piperacillin and BLIs (Compound-1 or tazobactam) as single agents or piperacillin in combination with BLIs at 1:1 ratio were prepared in aqueous agar (Bacto agar). Infected mice were dosed sub-cutaneously, with drug preparations at three different time points post-infection. […]
Survival of the treated mice were monitored twice a day, up to 7 days post-infection. Efficacy dose 50 (ED50) was calculated by Reed and Muench method (Reed, L. J.; Muench, H. “A simple method of estimating fifty percent endpoints”. The American Journal of Hygiene, 1938, 27: 493-497.).

## CCN1CCN(C(=O)N[C@@H](C(=O)N[C@@H]2C(=O)N3[C@@H]2SC(C)(C)[C@@H]3C(=O)O)c2ccccc2)C(=O)C1=O [Piperacillin]
Klebsiella pneumoniae, BAA1705, 168 h, read-out: ED50, single agent
  ED50: > 800 mg/kg
  ED50, single agent: >800 mg/kg
